{
  "source": "ChEMBL document CHEMBL4350952",
  "about": "“Evolution of PI3Kγ and δ Inhibitors for Inflammatory and Autoimmune Diseases” (J Med Chem, 2019)",
  "key": {"Homo sapiens [1]": {"species_on_record": "Homo sapiens", "test": "Selectivity ratio of IC50 for PI3Kalpha (unknown origin) to IC50 for GST-tagged PI3Kdelta (unknown origin)"}, "Homo sapiens [2]": {"species_on_record": "Homo sapiens", "test": "Selectivity ratio of IC50 for PI3Kbeta (unknown origin) to IC50 for GST-tagged PI3Kdelta (unknown origin)"}},
  "data": [
    {"compound": "C[C@H](Nc1ncnc2[nH]cnc12)c1nc2ccc(F)cc2c(=O)n1-c1ccccc1", "note": "[ACALISIB]", "values": [
      {"measurement": "Ratio IC50", "setting": "Homo sapiens [1]", "value": "> 1000"},
      {"measurement": "Ratio IC50", "setting": "Homo sapiens [2]", "value": 63}
    ]}
  ]
}
